Measurements taken from PubChem BioAssay AID1778 (Sanford-Burnham Center for Chemical Genomics, 2009).
This is one part of the list. Results with a measured potency or affinity are listed apart. Activity calls are given as the source filed them. Rule as the data show it: active = inhibition above about 50%; inactive = the rest.

The chains behind the UniProt entries cited, without tags or fusion partners. Where a name states a change or a piece, a line headed by the entry shows the natural chain unless it says otherwise.
UniProt P41145: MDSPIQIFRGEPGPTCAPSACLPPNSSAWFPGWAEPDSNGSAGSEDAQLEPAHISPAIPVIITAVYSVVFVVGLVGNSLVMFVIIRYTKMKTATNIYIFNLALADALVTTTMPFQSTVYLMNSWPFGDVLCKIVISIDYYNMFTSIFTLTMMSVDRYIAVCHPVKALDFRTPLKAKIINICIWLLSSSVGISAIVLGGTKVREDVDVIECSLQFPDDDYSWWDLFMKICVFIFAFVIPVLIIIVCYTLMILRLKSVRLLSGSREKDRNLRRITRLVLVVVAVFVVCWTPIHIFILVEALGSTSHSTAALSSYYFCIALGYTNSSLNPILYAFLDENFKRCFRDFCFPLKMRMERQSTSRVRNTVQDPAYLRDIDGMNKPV

The molecules below were run against Kappa-type opioid receptor (Homo sapiens) (UniProt P41145) (assay: kappa opioid receptor blockers – cell-based, luminescence, uHTS (AID 1778)). Settings: KOR beta-arrestin recruitment, antagonist mode, at 10 µM, hits give high values.

SMILES | inhibition
CCN(CC)c1ccc(NC(=O)Cn2c(C(C)NC(=O)c3ccc(C)cc3)nc3ccccc32)cc1 (stereo not drawn) | inactive: 2.8%
COc1cc(/C=N/NC(=O)Cn2cnc3c2c(=O)n(C)c(=O)n3C)cc(OC)c1OC | inactive: 12.6%
CSCC[C@H](NC(=O)N1CCn2c1nc1ccccc12)C(=O)NC1CC1 | inactive: -34.3%
O=C(NC1CCCCC1)C(c1ccccc1)N(Cc1ccco1)C(=O)Cn1cnc2ccccc21 (stereo not drawn) | inactive: -67.4%
CCOc1ccc(CNc2nc3ccccc3n2CCN2CCOCC2)cc1 | inactive: -28.6%
CCOc1ccc(NC(=S)N2CCn3c(nc4ccccc43)C2)cc1 | inactive: -15%
CCN(CC)CCn1c(=N)n(CC(=O)c2ccc(Br)s2)c2ccccc21 | inactive: -8.9%
O=S(=O)(c1ccccc1)c1nnn2c1nc(NC1CCN(Cc3ccccc3)CC1)c1cc(Cl)ccc12 | inactive: -20.2%
CCC(C)N(C(=O)Cn1c(Cl)nc2c1c(=O)n(C)c(=O)n2C)C1CCS(=O)(=O)C1 (stereo not drawn) | inactive: -6%
Brc1cccc(CNc2nc3ccccc3n2CCN2CCCCC2)c1 | inactive: 11%
COc1ccc(OC)c(CNc2nc3ccccc3n2CCN2CCCCC2)c1 | inactive: 13.9%
CCSc1nc2ccccc2n1CC(N)=O | inactive: 12.9%
Cn1c(=O)c2c(nc(CN3CCN(Cc4ccccc4)CC3)n2CCN2CCOCC2)n(C)c1=O | inactive: -44.9%
CC(NC(=O)Cn1c(NCCO)nc2ccccc21)c1ccccc1 (stereo not drawn) | inactive: 44.2%
Cn1c(=O)[nH]c(=O)c2c1nc(N1CCCCCC1)n2CC(N)=O | inactive: 0.7%
Nc1nonc1-c1nc2ccccc2n1CC(=O)N/N=C/c1ccc(-c2ccccc2C(=O)O)o1 | inactive: -43.3%
COc1ccc(-c2nn(-c3ccccc3)cc2C(=O)N2c3ccc(C)cc3C3CN(C)CCC32)cc1 (stereo not drawn) | inactive: -28.9%
Cn1c(=O)c2c(nc(CN3CCN(C(c4ccccc4)c4ccccc4)CC3)n2CC(N)=O)n(C)c1=O | inactive: -20%
CCOC(=O)c1cccc(NC(=O)Cn2cnc3c2c(=O)n(C)c(=O)n3C)c1 | inactive: 23.7%
CC(=O)NC(C)c1nc2ccccc2n1CC(=O)NC(C)CCc1ccccc1 (stereo not drawn) | inactive: 12.5%

SMILES | inhibition
CCc1cccc(C)c1NC(=O)CSc1nc2ccccc2n1CC(=O)N(C)C | inactive: -24.8%
CCN1C(=O)CC(n2c(C)nc3ccccc32)C1=O (stereo not drawn) | inactive: 4.3%
COc1ccc(N2CCn3c2nc2c3c(=O)n(CCc3ccccc3)c(=O)n2C)c(OC)c1 | inactive: 10.6%
O=C(Cn1cnc2ccccc21)N/N=C/c1ccco1 | inactive: -14%
COc1ccc(CNc2nc3ccccc3n2CCN2CCCCC2)cc1 | inactive: -4.1%
COCCN1CCn2c(nc3cc(NS(C)(=O)=O)ccc32)C1 | inactive: 8.1%
Cc1cccc(OCC(O)Cn2c(=N)n(CCN3CCCCC3)c3ccccc32)c1 (stereo not drawn) | inactive: -16.7%
O=P1(Nc2nc3ccc(Cl)cc3s2)COc2ccccc2O1 (stereo not drawn) | inactive: 4.1%
CCn1c(=O)c2c(nc3n2CCN3c2ccccc2)n(C)c1=O | inactive: -25.9%
CC1CN(C(=O)Cn2cnc3c2c(=O)n(C)c(=O)n3C)CC(C)O1 (stereo not drawn) | inactive: 35.9%
C[C@H](NC(=O)N1CCn2c1nc1ccccc12)C(=O)NCc1ccccc1 | inactive: -3.7%
COc1cccc(CNC(=O)[C@H](CCSC)NC(=O)N2CCn3c2nc2ccccc23)c1 | inactive: -37.9%
Cc1nc2ccccc2n1CC(=O)N1CC(=O)Nc2ccccc21 | inactive: -1.5%
COCCN1CCn2c(nc3cc(NC(C)=O)ccc32)C1 | inactive: 19.9%
COCCNC(=O)Cn1cnc2c1c(=O)n(C)c(=O)n2C | inactive: -37.9%
CCOc1ccc(C2=NCC(CBr)S2)cc1 (stereo not drawn) | inactive: -30.1%
CC(C)CCNC(=O)CC1C(=O)N(Cc2ccccc2)C(C)c2nc3ccccc3n21 (stereo not drawn) | inactive: 0.5%
CC(C)(C)NC(=O)Cn1c(SCC(N)=O)nc2ccccc21 | inactive: -28.8%
CCc1cccc(CC)c1N(COC)C(=O)Cn1cnc2ccccc21 | inactive: 23.4%
Cc1ccc2c(c1)C1CN(C)CCC1N2C(=O)COc1ccc(N(C)C(=O)c2ccccc2)cc1 (stereo not drawn) | inactive: 19.4%

SMILES | inhibition
N=c1n(CCCOc2ccccc2Cl)c2ccccc2n1CC(N)=O | inactive: 8.3%
Cc1ccc(C)c(CSc2nc3ccncc3n2CC(=O)Nc2ccc(C)c(C)c2)c1 | inactive: -3.4%
N#Cc1cccc(NC(=O)Cn2c3[n+](c4ccc(C(F)(F)F)cc42)CCCCC3)c1 | inactive: -4.3%
CC(C)(C)C(=O)NC(Sc1ccccc1)C(Cl)(Cl)Cl (stereo not drawn) | inactive: -0.5%
O=C(Cn1c(CO)nc2ccccc21)Nc1ccccc1Cl | inactive: -36.1%
CCc1nc2ccccc2n1CC(=O)N1CCN(Cc2ccccc2)CC1 | inactive: 22.2%
C[C@H](NC(=O)N1CCn2c1nc1ccccc12)C(=O)N1CCCCC1 | inactive: -55.8%
CCc1cccc(CC)c1N(COC)C(=O)Cn1c(CO)nc2ccccc21 | inactive: 13.5%
CSc1nc2ccccc2n1CC(=O)Nc1ccc(C)c(C)c1 | inactive: 34.8%
COc1ccc(/C=N/NC(=O)Cn2cnc3c2c(=O)n(C)c(=O)n3C)cc1 | inactive: 18.3%
COC(=O)C1=C(Cn2cnc3ccccc32)NC(=O)NC1c1cc(C)ccc1C (stereo not drawn) | inactive: 5.8%
c1ccc(CN2CCC(Nc3nc(-c4cccnc4)nc4ccccc34)CC2)cc1 | inactive: -25.1%
CCOC(=O)c1ccc(NC(=O)Cn2c(-c3nonc3N)nc3ccccc32)cc1 | inactive: -28.8%
CSc1nc2ccccc2n1CC(=O)Nc1c(C)n(C)n(-c2ccccc2)c1=O | inactive: 14.6%
CC(/C=C/c1ccccc1)=N/NC(=O)CCC(=O)Nc1ccccc1C | inactive: -26.9%
COc1cccc(C(=O)CSc2nc3ccccc3n2CC(=O)N2CCOCC2)c1 | inactive: -1.2%
O=C(Cn1c(-c2cncs2)nc2ccccc21)NCCc1ccccc1 | inactive: -27.2%
Cc1ccc2c(c1)C1CN(C)CCC1N2C(=O)Nc1cccc(Cl)c1 (stereo not drawn) | inactive: 17.1%
